Screens from PubChem.
A549 tox: kills or reduces viability of A549 cells in Nrf2 counter-screen; Potency, µM (top dose mostly 46 µM), for the others: at the top dose activity change, negative = cytotoxicity, hits mostly inhibitors; 0.16% of 390,000 active; A549 ARE-Fluc cells, CellTiter-Fluor viability, 18-24 h; also: potency is read from the fitted curve at half-maximal effect; % is scaled to controls: 0 for no effect and ±100 for the full control effect
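A549 ARE_Fluc cells in 5% FBS OPTI-MEM were exposed to compounds in concentration-response for 18-24 h at 37 deg C. Viability was read by CellTiter-Fluor fluorescence (Ex 405/Em 525) after 30 min, before the luciferase read.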
miR-21 FLuc: miR-21 reporter, rising signal | HeLa miR-21 FLuc reporter, luciferase, 48 h | Potency, µM (top dose mostly 38.3 µM), inactives show at the highest dose reporter change, positive = more light | 340,000 tested, under 10 active | AID 2288; active = well fitted rising curve with a large enough effect; inconclusive = small, poorly fitted or top-dose-only effect; inactive = no such curve, though single readings can be large or run the other way;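 note: % of control where 0% means no effect; miR-21 action dims this reporter so a rising signal means less miR-21 action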
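HeLa cells endogenously expressing miR-21, stably carrying CMV-driven firefly luciferase with a downstream miR-21 binding site, 2000 cells/well. Titrations up to approximately 40 uM, 48 hours; luciferase luminescence read.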
Mito fusion act: mitochondrial division inhibition or fusion activation. S. cerevisiae fusion-defective mutant growth rescue, CellTiterGlo 48 h. Potency, µM (series often up to 46.1 µM), for inactives: at the top dose growth rescue (activation), usual class: activators. 0.23% of 320,000 active; also: potency is read from the fitted curve at half-maximal effect; % of control where 0% means no effect; nearly all actives have a fitted effect of over 45% in size
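S. cerevisiae fusion-defective temperature-sensitive mutants (e.g. fzo1-1, mgm1-5) grown 48 h at 37C in YPEG (ethanol/glycerol non-fermentable) medium with 23 nl compound per well; growth rescue read as CellTiterGlo luminescence.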
Nrf2 activator: activators of Nrf2 (ARE) signaling. AREc32 ARE-luciferase reporter (MCF7-derived line), luminescence, 24 h. Potency, µM (series often up to 46.1 µM), for the others: top-dose activation, hits mostly activators. 0.31% of 410,000 active. AID 624171; also: potency is read from the fitted curve at half-maximal effect; % of control where 0% means no effect; nearly all actives have a fitted effect of over 65% in size
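Quantitative high-throughput format: AREc32 reporter cells, 1000 per well, received compound by pin transfer and were incubated 24 hr at 37 deg C, 5% CO2, before Steady-Glo luminescence detection.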
Nrf2 block: inhibitors of Nrf2 signaling | A549 ARE-Fluc reporter, luciferase luminescence, 18-24 h | Potency, µM (doses to about 46 µM), for inactives: at the top dose activity change, negative = inhibition, hits mostly inhibitors | 2.1% of 360,000 active | AID 504444; also: potency is read from the fitted curve at half-maximal effect; % is scaled to controls: 0 for no effect and ±100 for the full control effect; nearly all actives have a fitted effect of over 60% in size
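A549 ARE_Fluc cells, 5000/well, 5% FBS OPTI-MEM; compounds in dose-response, 18-24 h at 37 °C/5% CO2; CellTiter-Fluor viability read (Ex 405/Em 525), then BugLite luciferase luminescence = Nrf2 activity.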
* hit, by the source's call; ? = inconclusive; . = no result. Hits are enriched below; roughly 2.3% of the tested compounds scored in any of these assays. Unless noted, calls follow the shape of the dose curve; as a rule, active = well fitted curve in the direction sought with a large enough effect; inconclusive = small, poorly fitted or top-dose-only effect, or another doubt; inactive = no such curve, though single readings can be large; an effect the other way counts as inactive or inconclusive.

1: CCOC(=O)c1ccc(N2C(=O)c3n[nH]c(-c4cccs4)c3C2c2cccc(OC)c2)cc1 (stereo unspecified)
2: CCOC(=O)c1ccc(N2C(=O)c3n[nH]c(-c4ccco4)c3C2c2ccc(C)cc2)cc1 (stereo unspecified)
3: CCOC(=O)c1ccc(N2C(=O)c3[nH]nc(-c4ccccc4)c3C2c2ccc(CC)cc2)cc1 (stereo unspecified)
4: CCOC(=O)c1ccc(N2C(=O)c3[nH]nc(-c4ccc(C)cc4)c3C2c2cccc(F)c2)cc1 (stereo unspecified)
5: CCOc1ccc(N2C(=O)c3n[nH]c(-c4cccs4)c3C2c2cccc(F)c2)cc1 (stereo unspecified)
6: COC(=O)c1nn(-c2ccc(OC)cc2)c(=O)cc1O
7: CC(C)c1cc2c(s1)c1cnn(Cc3ccccc3F)c(=O)c1n2C
8: Oc1ccc(C[C@H]2CNC(=S)N2CC2CCCN2C[C@H](Cc2ccc(O)cc2)N2C[C@H](Cc3ccccc3)N(CCc3ccccc3)C2=S)cc1 (stereo partly specified)

| assay / entry | 1 | 2 | 3 | 4 | 5 | 6 | 7 | 8 |
| --- | --- | --- | --- | --- | --- | --- | --- | --- |
| A549 tox | ? | -24% | ? | -18% | -22% | 1% | -3% | -14% |
| miR-21 FLuc | ? | ? | ? | ? | ? | 1% | . | . |
| Mito fusion act | . | . | . | . | . | 1.6µM* | . | . |
| Nrf2 activator | -2% | -3% | -1% | 0% | -3% | 0% | . | 1% |
| Nrf2 block | 21µM* | ? | 18µM* | 21µM* | ? | 13% | ? | 21µM* |

9: Oc1ccc(C[C@H]2CNC(=S)N2CC2CCCN2C[C@H](Cc2ccc(O)cc2)N2C[C@H](Cc3ccc(O)cc3)N(CC3CCCCC3)C2=S)cc1 (stereo partly specified)
10: COc1ccc(S(=O)(=O)N2CCN(c3nc(-c4ccccc4)nc4ccccc34)CC2)cc1
11: O=C(c1cccs1)N(Cc1ccco1)c1ccc(O)cc1
12: Cc1ccc(NNC(=O)C(O)(c2cccc(C(F)(F)F)c2)c2cccc(C(F)(F)F)c2)cc1
13: Cc1cccc(C)c1NC(=O)CN1CCN(C(=O)CN2C(=O)NC3(CCCCC3C)C2=O)CC1 (stereo unspecified)
14: CC1CCCCC12NC(=O)N(CC(=O)N1CCN(Cc3ccc(C#N)cc3)CC1)C2=O (stereo unspecified)
15: CCCCNC(=S)NCCCN(Cc1ccc(Cl)c(Cl)c1)c1ccc(Br)cn1
16: COc1cccc(NC(=O)Cn2nc(Cc3cccnc3)c3ccccc3c2=O)c1

| assay / entry | 9 | 10 | 11 | 12 | 13 | 14 | 15 | 16 |
| --- | --- | --- | --- | --- | --- | --- | --- | --- |
| A549 tox | ? | 6% | 3% | ? | 17% | 0% | -16% | 17% |
| miR-21 FLuc | . | . | . | 28% | . | . | . | -3% |
| Mito fusion act | . | . | . | 2% | -1% | -1% | . | -2% |
| Nrf2 activator | -3% | . | . | 3% | 0% | 0% | . | -1% |
| Nrf2 block | 13µM* | -12% | -17% | 23µM* | -18% | 5.8µM* | ? | -1% |

A different layout for part of the listing above:
Results follow in this order: A549 tox | miR-21 FLuc | Mito fusion act | Nrf2 activator | Nrf2 block
9. Oc1ccc(C[C@H]2CNC(=S)N2CC2CCCN2C[C@H](Cc2ccc(O)cc2)N2C[C@H](Cc3ccc(O)cc3)N(CC3CCCCC3)C2=S)cc1 (stereo partly specified)
  ? | . | . | -3% | 13µM*
10. COc1ccc(S(=O)(=O)N2CCN(c3nc(-c4ccccc4)nc4ccccc34)CC2)cc1
  6% | . | . | . | -12%
11. O=C(c1cccs1)N(Cc1ccco1)c1ccc(O)cc1
  3% | . | . | . | -17%

Additional records
17: C=CC(=O)Nc1cccc(CN2C(=O)N(c3cc(OC)cc(OC)c3)Cc3cnc(NCCCCN(CC)CC)nc32)c1
18: COC(=O)c1ccc(C(=O)OC)c(NC(=O)c2c(-c3ccccc3)c(-c3ccccc3)nn(C)c2=O)c1
19: COc1ccc(Cn2nnnc2C(C(C)C)N2CCc3ccccc32)cc1 (stereo unspecified)
20: COc1ccc(Cn2nnnc2C(CC(C)C)N2CCN(c3ccccc3)CC2)cc1 (stereo unspecified)
21: O=C(O)CSCC(=O)Nc1ccc(C2CCCCC2)cc1
22: Nn1cnnc1SCC(=O)Nc1ccc(C2CCCCC2)cc1
23: CCc1cc[n+](C2=C([O-])c3ccccc3C(=O)/C2=N\S(=O)(=O)c2cccs2)cc1
24: Cc1ccc2c(Cl)cc(Cl)c(OCC(=O)Nc3cc(S(=O)(=O)N(C)C)ccc3C)c2n1
25: COc1ccc(-c2c(C)nn3c(N4CCN(Cc5ccccc5)CC4)cc(C)nc23)cc1OC

| assay / entry | 17 | 18 | 19 | 20 | 21 | 22 | 23 | 24 | 25 |
| --- | --- | --- | --- | --- | --- | --- | --- | --- | --- |
| A549 tox | 6.5µM* | 1% | -9% | 0% | -3% | -13% | ? | -18% | -3% |
| miR-21 FLuc | . | 2% | -8% | 6% | ? | -41% | ? | 28% | 1% |
| Mito fusion act | . | . | 27% | ? | -1% | 6% | -4% | 11% | -4% |
| Nrf2 activator | 6% | -1% | -1% | -1% | -3% | 0% | -2% | 3% | 0% |
| Nrf2 block | -8% | 13% | 16µM* | . | 5.2µM* | 14% | 18µM* | 15µM* | 4% |
